Test results published in patent publication US11028087B2, “2,6-disubstituted-9-cyclopentyl-9H-purines, use thereof as medicaments, and pharmaceutical compositions” (UNIVERZITA PALACKEHO V OLOMOUCI, priority 2017, dated 2021).

Assays:
[1] = system: FLT3 phosphorylation in MV4-11 xenograft; experiment: MV4-11 xenograft target modulation, pFLT3 immunoblot; assay type: in vivo, mice; conditions: single dose 10 mg/kg (264 intraperitoneal, Quizartinib oral gavage)
[2] = system: caspase-3/7 in MV4-11 cells; experiment: Caspase-3/7 activity, combinations with other anticancer drugs; conditions: 24 hours
[3] = biological target: panel of kinases; experiment: Kinase selectivity screen, biochemical phosphorylation assays (Carna Biosciences); conditions: 10 nM

SMILES | pFLT3 level in tumor at 24 hours [1] | relative caspase activity, concentration (nM) 10 ([2]; 10 nM compound 264) | relative caspase activity, concentration (nM) 100 ([2]; 100 nM compound 264) | kinase inhibitory activity in words ([3]; TRK, CAMK2, SIK, YES, FMS, KIT (D816V), MNK2, ACK and SRC) | kinase inhibitory activity in words ([3]; against FLT3, PDGFRα/β)
CC(C)(C)c1cc(NC(=O)Nc2ccc(-c3cn4c(n3)sc3cc(OCCN5CCOCC5)ccc34)cc2)no1 [Quizartinib, reference compound] | elevated level of pFLT3 | – | – | – | –
NC1CCC(Nc2nc(Nc3ccc(CN4CCOCC4)cc3)c3ncn(C4CCCC4)c3n2)CC1 (centres unmarked) [Compound 264] | – | 3.51 | 6.32 | significant inhibition | strong inhibitory activity
